Experimental data reported in patent US10758634B2, “Compounds, compositions and associated methods using zirconium-89 in immuno-positron emission tomography” (Wake Forest University, priority 2016, dated 2020).

Test system: HER2^+ 2170 and HER2^− 827 human lung cancer tumors
Test: Small animal PET/CT imaging of HER2+/− tumors in nude mice
Format: in vivo
Conditions: prepared with ^89ZrCl4; images at 144 h post-injection

## ^89Zr-DFO-Trastuzumab: trastuzumab (TmAb) conjugated to DFO and radiolabeled with ^89Zr using ^89Zr-OX or ^89ZrCl4
  antibody function in vivo, PET imaging of HER2+/− tumors: does not hinder antibody function in vivo
